Data reported in US20090053807A1 (Novo Nordisk A/S, priority 1998, published 2009).

Sequences of proteins named here, by UniProt entry; tags and fusion partners are left off. Residues count along the entry.
UniProt P08069, 741-935 limits assumed: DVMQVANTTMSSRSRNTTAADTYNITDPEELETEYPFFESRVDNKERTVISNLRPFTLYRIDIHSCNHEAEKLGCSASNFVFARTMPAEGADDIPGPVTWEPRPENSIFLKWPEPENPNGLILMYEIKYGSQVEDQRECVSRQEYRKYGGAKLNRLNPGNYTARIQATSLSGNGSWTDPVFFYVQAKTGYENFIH
UniProt P08069, 31-736 limits assumed: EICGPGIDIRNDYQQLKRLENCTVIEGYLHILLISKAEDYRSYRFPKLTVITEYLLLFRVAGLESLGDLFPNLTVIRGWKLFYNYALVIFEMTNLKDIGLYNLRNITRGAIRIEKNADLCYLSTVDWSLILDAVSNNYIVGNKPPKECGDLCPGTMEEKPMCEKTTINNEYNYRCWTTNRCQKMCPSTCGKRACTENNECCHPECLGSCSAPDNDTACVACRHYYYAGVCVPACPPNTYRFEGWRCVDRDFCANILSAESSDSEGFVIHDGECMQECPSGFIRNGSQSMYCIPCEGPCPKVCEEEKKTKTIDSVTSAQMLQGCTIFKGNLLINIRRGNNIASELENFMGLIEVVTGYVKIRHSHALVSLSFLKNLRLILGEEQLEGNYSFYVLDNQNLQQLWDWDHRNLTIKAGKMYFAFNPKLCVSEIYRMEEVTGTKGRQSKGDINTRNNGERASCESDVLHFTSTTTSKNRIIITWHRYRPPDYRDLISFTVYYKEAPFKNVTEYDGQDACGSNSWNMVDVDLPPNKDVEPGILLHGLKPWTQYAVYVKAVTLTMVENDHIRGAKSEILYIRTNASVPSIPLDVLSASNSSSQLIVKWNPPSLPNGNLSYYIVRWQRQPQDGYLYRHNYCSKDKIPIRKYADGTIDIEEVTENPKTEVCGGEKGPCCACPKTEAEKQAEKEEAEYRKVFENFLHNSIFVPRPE
UniProt P06213, 28-758 limits assumed: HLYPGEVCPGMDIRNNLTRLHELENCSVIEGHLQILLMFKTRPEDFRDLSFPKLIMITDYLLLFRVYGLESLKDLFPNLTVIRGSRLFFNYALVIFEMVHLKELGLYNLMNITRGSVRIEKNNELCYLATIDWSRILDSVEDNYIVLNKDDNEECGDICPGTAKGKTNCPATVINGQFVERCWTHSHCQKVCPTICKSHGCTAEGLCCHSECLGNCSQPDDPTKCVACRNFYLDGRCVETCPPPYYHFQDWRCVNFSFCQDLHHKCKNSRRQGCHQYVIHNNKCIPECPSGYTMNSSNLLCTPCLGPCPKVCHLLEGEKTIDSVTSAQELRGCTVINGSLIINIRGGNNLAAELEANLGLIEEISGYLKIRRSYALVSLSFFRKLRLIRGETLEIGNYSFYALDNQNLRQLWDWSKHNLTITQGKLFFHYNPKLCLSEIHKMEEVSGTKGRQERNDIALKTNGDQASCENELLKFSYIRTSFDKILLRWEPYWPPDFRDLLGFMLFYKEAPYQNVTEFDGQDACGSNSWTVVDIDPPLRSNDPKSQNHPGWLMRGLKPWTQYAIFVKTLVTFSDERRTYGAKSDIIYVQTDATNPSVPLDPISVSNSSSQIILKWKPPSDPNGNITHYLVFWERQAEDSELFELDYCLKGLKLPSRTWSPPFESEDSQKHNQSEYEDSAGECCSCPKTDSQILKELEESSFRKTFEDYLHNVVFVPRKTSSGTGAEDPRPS
UniProt P06213, 763-1382 limits assumed: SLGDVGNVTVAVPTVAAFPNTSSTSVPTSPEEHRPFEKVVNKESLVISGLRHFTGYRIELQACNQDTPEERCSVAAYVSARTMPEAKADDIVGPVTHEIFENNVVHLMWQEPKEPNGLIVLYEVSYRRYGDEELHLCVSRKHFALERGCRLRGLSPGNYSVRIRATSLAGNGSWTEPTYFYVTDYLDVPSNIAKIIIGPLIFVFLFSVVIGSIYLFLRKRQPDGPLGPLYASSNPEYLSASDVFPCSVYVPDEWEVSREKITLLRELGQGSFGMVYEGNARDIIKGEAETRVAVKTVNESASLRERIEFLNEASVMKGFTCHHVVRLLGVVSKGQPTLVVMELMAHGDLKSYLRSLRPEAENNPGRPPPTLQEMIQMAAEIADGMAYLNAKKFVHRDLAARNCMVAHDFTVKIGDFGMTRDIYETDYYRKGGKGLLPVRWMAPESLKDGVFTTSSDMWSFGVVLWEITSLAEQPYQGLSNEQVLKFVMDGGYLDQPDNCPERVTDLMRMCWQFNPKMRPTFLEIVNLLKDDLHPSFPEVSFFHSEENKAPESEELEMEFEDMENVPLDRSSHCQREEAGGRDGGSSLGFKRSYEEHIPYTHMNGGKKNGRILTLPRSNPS

Key:
[1] = biological target: His-tagged soluble recombinant human IGF-1R (srhIGF-1R-his) (Homo sapiens, UniProt P08069); test: ALPHAScreen binding assay, competition with b-hIGF-1; conditions: Table 29
[2] = biological target: T1, human insulin receptor (HIR) (Homo sapiens, UniProt P06213); test: Insulin receptor binding, competition with 125I-labeled insulin (radio-receptor assay); conditions: HIR binding affinity of synthetic peptides
T1 construct: made in house

Substance	IC50 [1]	Kd [2]
GRVDWLQRNANFYDWFVAELG [Peptide S175]	7.1 µM	–
(ESFYDWFERQLGK)2-23 [Peptide S415]	–	0.1 µM
